Experimental data from patent publication US8911966B2, “Efficient astaxanthin production strains derived from Haematococcus pluvialis” (Cognis IP Management GmbH, priority 2007, dated 2014).

Test system: Haematococcus pluvialis SAG 34-1b
Assay: Growth inhibition of wild strain by herbicides (minimal inhibiting concentration)
Format: cell-based
Conditions: strain SAG 34-1b; concentration also used for selection

`CN1CCCC1c1cccnc1` (stereo not shown) [Nicotine, nicotine] was tested, and the “minimal concentration of the herbicide which inhibits the growth of the wild strain” value was 500 µM.
